The text below walks through data of patent US9440982B2 (Eolas Therapeutics, Inc., priority 2012, dated 2016).

Amino acid sequences for entries named in this document (tags omitted).
UniProt O43614, whole entry: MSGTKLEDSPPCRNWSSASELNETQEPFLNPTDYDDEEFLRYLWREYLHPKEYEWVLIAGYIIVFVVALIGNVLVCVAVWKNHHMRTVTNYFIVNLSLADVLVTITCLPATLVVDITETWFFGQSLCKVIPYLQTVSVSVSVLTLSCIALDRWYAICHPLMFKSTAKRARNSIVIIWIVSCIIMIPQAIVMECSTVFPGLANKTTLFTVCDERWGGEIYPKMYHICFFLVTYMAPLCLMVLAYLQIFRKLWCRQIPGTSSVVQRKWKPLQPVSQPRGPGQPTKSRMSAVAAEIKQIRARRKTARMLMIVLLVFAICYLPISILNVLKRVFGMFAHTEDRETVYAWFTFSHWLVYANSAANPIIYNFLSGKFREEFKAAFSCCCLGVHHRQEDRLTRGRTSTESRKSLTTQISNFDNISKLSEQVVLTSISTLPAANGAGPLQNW

In one test the target is T1, OX2 (Homo sapiens, UniProt O43614).
T1 construct: expressed in transfected cells; host or cells: CHO (CHO-OX2, kept under selection antibiotic)
The experiment in a line: Orexin receptor cell-based functional assay, [Ca2+]i by FLIPR, CHO-OX2 cells. The conditions noted are these: CHO-OX2 cells, [Ca2+]i by FLIPR, antagonist dose-range 0.1 nM-10 μM, EC90 of OXA; read-out: OX2.
`Cc1ccc(-c2ccc(C)nc2)c(C(=O)N2CCC[C@@H](C)[C@H]2CNc2nc3cc(Cl)ccc3o2)c1` [Example A38, ((2S,3R)-2-(((5-Chlorobenzo[d]oxazol-2-yl)amino)methyl)-3-methylpiperidin-1-yl)(5-methyl-2-(6-methylpyridin-3-yl)phenyl)methanone]: the IC50 was over 5 µM. As to `Cc1ccc(-c2ccc(C(F)(F)F)cn2)c(C(=O)N2CCC[C@@H](C)[C@H]2CNc2ccc(Cl)cn2)c1` [Example A158, ((2S,3R)-2-(((5-Chloropyridin-2-yl)amino)methyl)-3-methylpiperidin-1-yl)(5-methyl-2-(5-(trifluoromethyl)pyridin-2-yl)phenyl)methanone], the IC50 is over 5 µM. Take `Cc1ccc(-c2cccc(C)n2)c(C(=O)N2CCC[C@@H](C)[C@H]2CNc2ccc(C(F)(F)F)cn2)c1` [Example A104, ((2S,3R)-3-Methyl-2-(((5-(trifluoromethyl)pyridin-2-yl)amino)methyl)piperidin-1-yl)(5-methyl-2-(6-methylpyridin-2-yl)phenyl)methanone]: the IC50 amounted to 1.9 µM. As to `Cc1ccc(-n2nccn2)c(C(=O)N2CCC[C@@H](C)[C@H]2CNc2nc3ccc(Cl)cc3o2)c1` [Example A14, ((2S,3R)-2-(((6-Chlorobenzo[d]oxazol-2-yl)amino)methyl)-3-methylpiperidin-1-yl)(5-methyl-2-(2H-1,2,3-triazol-2-yl)phenyl)methanone], the IC50 was found to be 0.62 µM. Consider `Cc1ccc(-n2nccn2)c(C(=O)N2CCC[C@@H](C)[C@H]2CNc2nnc(C(F)(F)F)s2)n1` [Example A191, ((2S,3R)-3-Methyl-2-(((5-(trifluoromethyl)-1,3,4-thiadiazol-2-yl)amino)methyl)piperidin-1-yl)(6-methyl-3-(2H-1,2,3-triazol-2-yl)pyridin-2-yl)methanone], for which the IC50 was over 5 µM.

Regarding `Cc1ccc(-c2ncccn2)c(C(=O)N2CCC[C@@H](C)[C@H]2CNc2ncc(C(F)(F)F)cn2)n1` [Example A184, ((2S,3R)-3-Methyl-2-(((5-(trifluoromethyl)pyrimidin-2-yl)amino)methyl)piperidin-1-yl)(6-methyl-3-(pyrimidin-2-yl)pyridin-2-yl)methanone], the IC50 amounted to 2.5 µM. Consider `Cc1ccc(-n2nccn2)c(C(=O)N2CCC[C@@H](C)[C@H]2CNc2nc(C(F)(F)F)cs2)c1` [Example A123, ((2S,3R)-3-Methyl-2-(((4-(trifluoromethyl)thiazol-2-yl)amino)methyl)piperidin-1-yl)(5-methyl-2-(2H-1,2,3-triazol-2-yl)phenyl)methanone], for which the IC50 was over 5 µM. On the same count and under the same terms, the result for `Cc1ccc(-c2cnccn2)c(C(=O)N2CCC[C@@H](C)[C@H]2CNc2ccc(C(F)(F)F)cn2)c1` [Example A19, ((2S,3R)-3-Methyl-2-(((5-(trifluoromethyl)pyridin-2-yl)amino)methyl)piperidin-1-yl)(5-methyl-2-(pyrazin-2-yl)phenyl)methanone] reads 0.23 µM.

For `C[C@@H]1CCCN(C(=O)c2cc(F)ccc2-n2nccn2)[C@@H]1CNc1ccc(C(F)(F)F)nn1` [Example A208, (5-Fluoro-2-(2H-1,2,3-triazol-2-yl)phenyl)((2S,3R)-3-methyl-2-(((6-(trifluoromethyl)pyridazin-3-yl)amino)methyl)piperidin-1-yl)methanone], the IC50 is over 5 µM. On to `Cc1ccc(-n2nccn2)c(C(=O)N2CCC[C@@H](C)[C@H]2CNc2ccc(C3(C#N)CC3)cn2)c1` [Example A140, 1-(6-((((2S,3R)-3-Methyl-1-(5-methyl-2-(2H-1,2,3-triazol-2-yl)benzoyl)piperidin-2-yl)methyl)amino)pyridin-3-yl)cyclopropanecarbonitrile], for which the IC50 is 0.79 µM. The same measure, in the same setting: with `Cc1ccc(-n2ccc(C)n2)c(C(=O)N2CCC[C@@H](C)[C@H]2CNc2ccc(Cl)cn2)c1` [Example A120, ((2S,3R)-2-(((5-Chloropyridin-2-yl)amino)methyl)-3-methylpiperidin-1-yl)(5-methyl-2-(3-methyl-1H-pyrazol-1-yl)phenyl)methanone] the figure was over 5 µM; with `C[C@@H]1CCCN(C(=O)c2ccccc2-c2ncccn2)[C@@H]1CNc1ccc(C(F)(F)F)cn1` [Example A316, ((2S,3R)-3-Methyl-2-(((5-(trifluoromethyl)pyridin-2-yl)amino)methyl)piperidin-1-yl)(2-(pyrimidin-2-yl)phenyl)methanone], over 5 µM; with `Cc1ccc(-n2nccn2)c(C(=O)N2CCC[C@@H](C)[C@H]2CNc2ccc(C3CC3)cn2)c1` [Example A136, ((2S,3R)-2-(((5-Cyclopropylpyridin-2-yl)amino)methyl)-3-methylpiperidin-1-yl)(5-methyl-2-(2H-1,2,3-triazol-2-yl)phenyl)methanone], 0.59 µM. As for `Cc1ccc(-n2nccn2)c(C(=O)N2CCC[C@@H](C)[C@H]2CNc2nc3cc(Cl)ccc3o2)n1` [Example A195, ((2S,3R)-2-(((5-Chlorobenzo[d]oxazol-2-yl)amino)methyl)-3-methylpiperidin-1-yl)(6-methyl-3-(2H-1,2,3-triazol-2-yl)pyridin-2-yl)methanone], the IC50 worked out at 0.389 µM. On the same count and under the same terms, the result for `COc1cccnc1NC[C@@H]1[C@H](C)CCCN1C(=O)c1cc(C)ccc1-n1nccn1` [Example A98, ((2S,3R)-2-(((3-Methoxypyridin-2-yl)amino)methyl)-3-methylpiperidin-1-yl)(5-methyl-2-(2H-1,2,3-triazol-2-yl)phenyl)methanone] reads over 5 µM; that for `Cc1ccc(-n2nccn2)c(C(=O)N2CCC[C@@H](C)[C@H]2CNc2ncc(C#N)cc2F)c1` [Example A148, 5-Fluoro-6-((((2S,3R)-3-methyl-1-(5-methyl-2-(2H-1,2,3-triazol-2-yl)benzoyl)piperidin-2-yl)methyl)amino)nicotinonitrile], over 5 µM. Same read-out and setting: with `Cc1ccc(-c2ncccn2)c(C(=O)N2CCC[C@@H](C)[C@H]2CNc2ccc(C#N)cn2)c1` [Example A139, 6-((((2S,3R)-3-Methyl-1-(5-methyl-2-(pyrimidin-2-yl)benzoyl)piperidin-2-yl)methyl)amino)nicotinonitrile] the figure was over 5 µM; with `Cc1cccc(C(=O)N2CCC[C@@H](C)[C@H]2CNc2ncc(C(F)(F)F)cn2)c1-c1ncccn1` [Example A299, ((2S,3R)-3-Methyl-2-(((5-(trifluoromethyl)pyrimidin-2-yl)amino)methyl)piperidin-1-yl)(3-methyl-2-(pyrimidin-2-yl)phenyl)methanone], 2.35 µM. For `Cc1ccc(-n2nccn2)c(C(=O)N2CCC[C@@H](C)[C@H]2CNc2ncc(C(F)(F)F)cc2F)n1` [Example A188, ((2S,3R)-2-(((3-Fluoro-5-(trifluoromethyl)pyridin-2-yl)amino)methyl)-3-methylpiperidin-1-yl)(6-methyl-3-(2H-1,2,3-triazol-2-yl)pyridin-2-yl)methanone], the IC50 is 2.3 µM. `Cc1ccc(-n2cnc(C)n2)c(C(=O)N2CCC[C@@H](C)[C@H]2CNc2nc3cc(Cl)ccc3o2)c1` [Example A29, ((2S,3R)-2-(((5-Chlorobenzo[d]oxazol-2-yl)amino)methyl)-3-methylpiperidin-1-yl)(5-methyl-2-(3-methyl-1H-1,2,4-triazol-1-yl)phenyl)methanone]: the IC50 was over 5 µM.

In the case of `Cc1ccc(-c2ccc(C)cc2C(=O)N2CCC[C@@H](C)[C@H]2CNc2ccc(C(F)(F)F)cn2)nc1` [Example A118, ((2S,3R)-3-Methyl-2-(((5-(trifluoromethyl)pyridin-2-yl)amino)methyl)piperidin-1-yl)(5-methyl-2-(5-methylpyridin-2-yl)phenyl)methanone], the IC50 is 2.2 µM. Same read-out and setting: with `C[C@@H]1CCCN(C(=O)c2ccccc2-n2nccn2)[C@@H]1CNc1ncc(C(F)(F)F)cn1` [Example A313, (2-(2H-1,2,3-Triazol-2-yl)phenyl)((2S,3R)-3-methyl-2-(((5-(trifluoromethyl)pyrimidin-2-yl)amino)methyl)piperidin-1-yl)methanone] the figure was 3.6 µM; with `Cc1ccc(-c2cnn(C)c2)c(C(=O)N2CC3CCCC3C2CNc2ccc(C(F)(F)F)cn2)c1` (stereo not shown) [Example A71, (5-Methyl-2-(1-methyl-1H-pyrazol-4-yl)phenyl)(1-(((5-(trifluoromethyl)pyridin-2-yl)amino)methyl)hexahydrocyclopenta[c]pyrrol-2(1H)-yl)methanone], 3.6 µM.

Still in this test, the particulars now being: Table 2; CHO-OX2 cells, EC90 of OXA; read-out: IC50 Bioactivity OX2.
For the molecule `Cc1nc(C(=O)N2CC(N)CCC2CNC(=O)c2cccc3cccnc23)c(-c2cccc(F)c2)s1` (racemic) [Example 53, N-((5-Amino-1-(5-(3-fluorophenyl)-2-methylthiazole-4-carbonyl)piperidin-2-yl)methyl)quinoline-8-carboxamide], the IC50 amounted to 0.75 µM.

With `Cc1nc(-c2ccccc2)c(C(=O)N2CCC(=O)[C@H]2CNC(=O)c2cccc3cccnc23)s1` [Example 132, (R)—N-((1-(2-Methyl-4-phenylthiazole-5-carbonyl)-3-oxopyrrolidin-2-yl)methyl)quinoline-8-carboxamide], the IC50 turned out to be 1.4 µM. Same read-out and setting: the result for `Cc1nc(C(=O)N2CCC[C@@H](C)[C@H]2CNc2ncc(Br)cn2)c(-c2ccc(F)cc2)s1` (racemic) [Example 15, rac-cis-(2-(((5-Bromopyrimidin-2-yl)amino)methyl)-3-methylpiperidin-1-yl)(5-(4-fluorophenyl)-2-methylthiazol-4-yl)methanone] reads over 5 µM. With `Cc1ccc(-c2cccnc2)c(C(=O)N2CCC[C@@H](C)[C@H]2CNc2ccc(C(F)(F)F)cn2)c1` (racemic) [Example 104, rac-cis-(3-Methyl-2-(((5-(trifluoromethyl)pyridin-2-yl)amino)methyl)piperidin-1-yl) (5-methyl-2-(pyridin-3-yl)phenyl)methanone], the IC50 was found to be 8.8 µM. On to `COc1cnc(NC[C@@H]2[C@H](C)CCCN2C(=O)c2nc(C)sc2-c2ccc(F)cc2)nc1` (racemic) [Example 88, rac-cis-(2-(((5-Methoxypyrimidin-2-yl)amino)methyl)-3-methylpiperidin-1-yl) (5-(4-fluorophenyl)-2-methylthiazol-4-yl)methanone], for which the IC50 is over 10 µM.
